# Laboratory results: BindingDB's records for doi:10.1016/j.ejmech.2017.05.035 (Universidade Estadual De Feira De Santana, 2017)
# Test: Antagonist activity at Adenosine receptor subtype 2B in human RBC assessed as change in erythrocyte morphology incubated for 3 hrs with occasional gentle stirring for every 30 min measured for every 12 hrs by microscopic analysis
structure (smiles),measurement,value
CCCn1c(=O)c2[nH]c(-c3ccc(OCC(=O)Nc4ccc(C#N)cc4)cc3)nc2n(CCC)c1=O,EC50,23 nM
